Test results published in PMC6079455, “Discovery of Novel Caeridins from the Skin Secretion of the Australian White's Tree Frog, Litoria caerulea” (International Journal of Genomics, 2018).

Tested on: E. coli NCTC10418
Assay: Antimicrobial test (broth microdilution)
Assay type: cell-based, Escherichia coli
Protocol: The antimicrobial activities were tested by the broth microdilution method and evaluated by the determination of MIC values against different tested microorganisms, the Gram-positive bacteria, S. aureus (NCTC 10788), E. faecalis (NCTC12697), and MRSA (NCTC 12493); the Gram-negative bacterium, E. coli (NCTC 10418); and the yeast, C. albicans (NCYC 1467). The microorganisms were cultured to their log phase in MHB and diluted to 5 × 10^5 CFU/ml then subsequently treated with peptide solutions of gradient concentrations. After incubation at 37°C overnight, the growth of microorganisms was detected at a wavelength of 550 nm using a Synergy HT plate reader (Biolise BioTek ELx808, Winooski, VT, USA). The MICs were determined as the lowest concentration of peptide where […].

`CC[C@H](C)[C@H](NC(=O)CN)C(=O)NCC(=O)N[C@@H](C)C(=O)N[C@H](C(=O)N[C@@H](CC(C)C)C(=O)N[C@@H](CCCCN)C(=O)N[C@H](C(=O)N[C@@H](CC(C)C)C(=O)N[C@H](C(=O)N[C@H](C(=O)NCC(=O)N[C@@H](CC(C)C)C(=O)N1CCC[C@H]1C(=O)N[C@@H](C)C(=O)N[C@@H](CC(C)C)C(=O)N[C@H](C(=O)N[C@@H](CO)C(=O)N[C@@H](Cc1c[nH]c2ccccc12)C(=O)N[C@H](C(=O)N[C@@H](CCCCN)C(=O)N[C@@H](CCCNC(=N)N)C(=O)N[C@@H](CCCCN)C(=O)N[C@@H](CCCNC(=N)N)C(=O)N[C@@H](CCC(N)=O)C(=O)N[C@@H](CCC(N)=O)C(N)=O)[C@@H](C)CC)[C@@H](C)CC)[C@@H](C)O)[C@@H](C)O)C(C)C)C(C)C` [Melittin, reference compound] was tested, and the MBC was 8 µM and the MIC (MHB, 5 × 10^5 CFU/ml, 37°C overnight, 550 nm) was 4 µM.
